Target: hENPP2 (UniProtKB/SwissProt Q13822) (Homo sapiens (Human), UniProt Q13822)
Experiment: hENPP2 biochemical assay, LPC as substrate
Settings: LPC (palmitoyl 16:0) as substrate
Procedure: The principle of the assay consists in quantifying the released choline with an enzymatic method using choline oxidase and peroxidase. Choline oxydation by choline oxydase releases betaine and peroxide. The latter is quantified in presence of HRP that converts the peroxide detection agent TOOS and 4-aminoantipyrine into quinoneimine dye. The appearance of quinoneimine dye is measured spectrophotometrically at 555 nm and is proportional to the amount of choline released by ENPP2. Inhibition of ENPP2 will result in a decrease of the signal.
Compound IC50 values are determined in a hENPP2 (UniProtKB/SwissProt Sequence ref Q13822) biochemical assay using LPC as substrate.
The enzyme is diluted in 50 mM Tris-HCl pH 8.5, 500 mM NaCl, 5 mM KCl, 10 mM CaCl2, 0.1% fatty acid free BSA in a total volume of 10 μL. the reaction is started by the addition of 10 μL of 150 μM LPC (palmitoyl 16:0) diluted in the same buffer as described above and the mixture is incubated at 37° C. for 30 min. The reaction is terminated and choline quantified by the addition of a 25 μL of a mixture containing 0.6 U/mL of choline oxidase, 0.6 U/mL of peroxydase, 1.8 mM TOOS, 1.2 mM amino-antipyrine, 20 mM EGTA (stop-developer solution) diluted in the buffer described above. […] is read on the Envision after an incubation of 30 min at room temperature (Excitation 555 nm, excitation light=70%).

## {2-[4-(2-Ethyl-3-{[4-(4-fluoro-phenyl)-thiazol-2-yl]-methyl-amino}-imidazo[1,2-a]pyridin-6-yl)-piperazin-1-yl]-4, 5-dihydro-oxazol-5-yl}-methanol [Compound 222]
  IC50: 500 to 1000 nM

— patent US9670204B2, “Compounds and pharmaceutical compositions thereof for the treatment of inflammatory disorders” (Galapagos NV, priority 2013, dated 2017)
